Measured values reported in article PMC6030506 (Biochemistry, 2018).

Biological target: T1, HDAC8 (Homo sapiens, UniProt Q9BY41)
T1 sequence (Q9BY41 1-377): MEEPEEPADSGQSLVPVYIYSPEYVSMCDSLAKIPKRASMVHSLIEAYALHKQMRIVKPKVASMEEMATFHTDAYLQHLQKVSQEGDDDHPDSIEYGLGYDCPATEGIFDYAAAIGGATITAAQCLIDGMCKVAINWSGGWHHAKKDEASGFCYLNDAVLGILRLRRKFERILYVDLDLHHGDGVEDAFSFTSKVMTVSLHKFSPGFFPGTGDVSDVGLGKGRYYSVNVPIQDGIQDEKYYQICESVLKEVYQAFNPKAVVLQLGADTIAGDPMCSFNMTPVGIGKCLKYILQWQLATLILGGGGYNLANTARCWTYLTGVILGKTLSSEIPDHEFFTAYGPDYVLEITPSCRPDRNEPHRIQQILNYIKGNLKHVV
Assay: ITC
Type: binding
Settings: […] HEPES pH […] KCl, […] glycerol, […] TCEP

With `O=C(CCCCCCNC(=O)c1cnc(N(c2ccccc2)c2ccccc2)nc1)NO` [Ricolinostat] the Kd was “the aliphatic hydroxamate inhibitor Ricolinostat”.
